Assay results reported in patent US20250346662A1.

Target: human epidermal growth factor receptor (EGFr), on cells (human) (UniProt P00533)
Assay: cell-based or functional assay

Substance: anti-EGFr wild type (fully human recombinant IgG2 monoclonal antibody, mAb E7.6.3)
- IC50, luciferase reporter gene expression assay: 0.087 µg/mL
- Specific Activity (Weighted Mean), EGFr reporter gene expression assay: 98%
